Measurements taken from patent publication US5639597A, “Cell-free receptor binding assays, the production and use thereof” (Behringwerke Aktiengesellschaft, priority 1990, dated 1997).

Assays:
[1] = molecular target: T1, TNFRFc (extra-cellular portion of the 80 kD form of the human TNF receptor fused to Fc of human IgG1) (Homo sapiens, UniProt P20333); test: Cell-free TNF binding assay, competition of ligands with TNF-alpha-biotin; settings: 200 ng/ml TNFRFc for coating, 20 ng/ml TNF-alpha-biotin, concentrations used; FIG. 8
T1 construct: made in house
Experimental: (§1) The assay plate was washed five times with PBS containing 0.05% Tween 20 and then incubated with 275 μl of PBS containing 5% skim milk powder at room temperature for 60 min and then washed as above. Then a "checkerboard titration" was initially carried out in order to determine a suitable combination of receptor and ligand concentrations for the design of the assay. […] After washing as above, incubation with 100 μl of streptavidin-peroxidase (Amersham; 1:250 in DMEM/FCS) was carried out at room temperature for 30 min and then washed as above. The bound peroxidase was detected by the color produced in 100 μl of tetramethylbenzidine substrate solution (Behringwerke). After incubation at room temperature for 30 min, the extinction at 450 nm was measured.

[2] = molecular target: T2, IL-4RFc (extracellular portion of the human receptor for IL-4 fused to Fc of human IgG1) (Homo sapiens, UniProt P24394); test: Cell-free IL-4 binding assay, competition of ligands with IL-4-biotin; settings: 300 ng/ml IL-4-biotin, various concentrations of competitor; FIG. 3
T2 construct: It is composed of the extracellular portion of the human receptor for IL-4
Experimental: as §1, with “ELISA plates (Nunc, type B) were coated overnight at 4° C. with 100 μl of an affinity-purified rabbit serum against the CH2 domain of human IgG (Dakopatts). The concentration was 10 μg/ml in PBS (137 mM NaCl, 2.7 mM KCl, 6.1 mM Na2 HPO4, 3.9 mM KH2 PO4, 0.5 mM MgCl2, 0.1 mM CaCl2, pH 7.0). The assay” for “The assay”

[3] = molecular target: T3, GM-CSFRFc (extracellular domain of the human GM-CSF receptor fused to Fc of human IgG1) (Homo sapiens, UniProt P15509); test: Cell-free GM-CSF binding assay, competition of ligands with GM-CSF-biotin; settings: 1000 ng/ml GM-CSFRFc for coating, 150 ng/ml GM-CSF-biotin, concentrations used; FIG. 14
T3 construct: made in house; host or cells: COS cells (transient; supernatants used)
Experimental: as §1, with “ELISA plates (Nunc, type B) were coated overnight at 4° C. with 100 μl of an affinity-purified rabbit serum against the CH2 domain of human IgG (Dakopatts). The concentration was 10 μg/ml in PBS (137 mM NaCl, 2.7 mM KCl, 6.1 mM Na2 HPO4, 3.9 mM KH2 PO4, 0.5 mM MgCl2, 0.1 mM CaCl2, pH 7.0). The assay” for “The assay”
Transient expression of pGM-CSFRFc in COS cells was carried out. To do this, COS cells were transfected with pGM-CSFRFc with the aid of DEAE-dextran (EP-A 0325 262).

B1: IL-3: interleukin ligand used for competition (specificity control) (protein, UniProt P08700 20-152, looked up)
Interleukin-3: APMTQTTPLKTSWVNCSNMIDEIITHLKQPPLPLLDFNNLNGEDQDILMENNLRRPNLEAFNRAVKSLQNASAIESILKNLLPCLPLATAAPTRHPIHIKDGDWNEFRRKLTFYLKTLENAQAQQTTLSLAIF
- effect on binding of TNF-alpha-biotin to TNFRFc [1]: no effect
- competition with IL-4-biotin for binding to IL-4RFc [2]: no binding activity
- inhibition of binding of GM-CSF-biotin to GM-CSFRFc [3]: do not inhibit
